ChEMBL document CHEMBL1143702, “Synthesis and biological evaluation of (+/-)-abyssinone II and its analogues as aromatase inhibitors for chemoprevention of breast cancer” (J Med Chem, 2007)

Amino acid sequences for entries named in this document (tags omitted). A change or cut given only in a name is not applied to a line headed by its entry.
UniProt P11511: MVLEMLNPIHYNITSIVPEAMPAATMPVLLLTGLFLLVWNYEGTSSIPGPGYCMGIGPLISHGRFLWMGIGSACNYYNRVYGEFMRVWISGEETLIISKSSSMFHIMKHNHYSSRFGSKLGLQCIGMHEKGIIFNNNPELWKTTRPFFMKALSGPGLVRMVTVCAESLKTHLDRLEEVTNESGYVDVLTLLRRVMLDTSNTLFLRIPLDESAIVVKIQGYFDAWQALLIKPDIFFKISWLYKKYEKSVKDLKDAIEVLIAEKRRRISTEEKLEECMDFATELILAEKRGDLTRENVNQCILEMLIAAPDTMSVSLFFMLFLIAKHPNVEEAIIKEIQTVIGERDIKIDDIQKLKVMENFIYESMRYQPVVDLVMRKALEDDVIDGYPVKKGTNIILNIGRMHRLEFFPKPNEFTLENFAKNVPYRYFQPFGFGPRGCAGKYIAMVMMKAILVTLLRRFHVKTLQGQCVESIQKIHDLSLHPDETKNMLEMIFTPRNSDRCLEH

Target: Aromatase (Homo sapiens, UniProt P11511)

`CC(C)=CCc1cc([C@@H]2CC(=O)c3ccc(O)cc3O2)ccc1O` [ABYSSINONE II] was tested, and the IC50 was 40.9 µM.
